Literature values in patent US9169307B2, “Potent compstatin analogs” (The Trustees of the University of Pennsylvania, priority 2005, dated 2015).

Details: intravenous bolus into rabbits; cited from earlier work

Question: With “AcRLIEDICLPRWGCLWEDDNH2 (N-terminal acetyl, C-terminal amide) [SA21]” as the substance, how does the half-life read?
Answer: 2.3 h
